# In ChEMBL document CHEMBL1641425, “Discovery of 1-(3,4-dichlorophenyl)-N,N-dimethyl-1,2,3,4-tetrahydroquinolin-4-amine, a dual serotonin and dopamine reuptake inhibitor” (Bioorg Med Chem Lett, 2011):
# Amino acid sequences for entries named in this document (tags omitted).
# UniProt P31645, whole entry: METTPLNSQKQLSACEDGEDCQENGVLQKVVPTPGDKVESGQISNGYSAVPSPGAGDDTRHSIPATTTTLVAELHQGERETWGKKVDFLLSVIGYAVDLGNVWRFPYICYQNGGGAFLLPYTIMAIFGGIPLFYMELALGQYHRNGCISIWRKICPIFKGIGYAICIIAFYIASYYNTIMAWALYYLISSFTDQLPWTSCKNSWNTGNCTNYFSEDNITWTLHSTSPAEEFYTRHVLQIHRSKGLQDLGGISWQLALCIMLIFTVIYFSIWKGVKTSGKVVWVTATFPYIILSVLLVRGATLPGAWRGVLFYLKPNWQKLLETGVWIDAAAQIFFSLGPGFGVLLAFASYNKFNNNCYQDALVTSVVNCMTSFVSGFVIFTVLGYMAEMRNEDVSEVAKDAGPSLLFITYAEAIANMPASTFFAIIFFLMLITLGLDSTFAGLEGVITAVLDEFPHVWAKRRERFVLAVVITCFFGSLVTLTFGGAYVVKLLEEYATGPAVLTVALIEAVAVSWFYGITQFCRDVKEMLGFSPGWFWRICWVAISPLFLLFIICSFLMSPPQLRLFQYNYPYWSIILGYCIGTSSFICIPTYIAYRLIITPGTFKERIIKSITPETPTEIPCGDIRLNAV
# UniProt P23975, whole entry: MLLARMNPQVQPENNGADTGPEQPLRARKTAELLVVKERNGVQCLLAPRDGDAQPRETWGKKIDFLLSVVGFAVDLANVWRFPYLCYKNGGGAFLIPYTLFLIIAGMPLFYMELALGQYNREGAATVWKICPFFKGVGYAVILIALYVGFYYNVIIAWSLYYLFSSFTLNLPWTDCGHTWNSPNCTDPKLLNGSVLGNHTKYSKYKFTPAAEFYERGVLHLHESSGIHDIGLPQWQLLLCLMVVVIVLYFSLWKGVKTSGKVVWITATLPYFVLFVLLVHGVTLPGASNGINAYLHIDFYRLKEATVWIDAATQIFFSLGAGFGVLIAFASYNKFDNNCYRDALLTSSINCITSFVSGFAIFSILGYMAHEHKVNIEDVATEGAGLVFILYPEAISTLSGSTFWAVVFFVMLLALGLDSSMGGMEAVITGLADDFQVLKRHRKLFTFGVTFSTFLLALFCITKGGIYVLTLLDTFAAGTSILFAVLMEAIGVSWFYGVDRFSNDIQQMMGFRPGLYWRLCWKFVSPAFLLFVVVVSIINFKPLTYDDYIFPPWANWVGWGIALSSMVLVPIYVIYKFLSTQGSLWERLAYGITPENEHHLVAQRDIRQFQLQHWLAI
# Experiments:
# [1] = target: Sodium-dependent serotonin transporter (Homo sapiens, UniProt P31645); test: Inhibition of human recombinant 5HT transporter
# [2] = target: Sodium-dependent noradrenaline transporter (Homo sapiens, UniProt P23975); test: Inhibition of human recombinant norepinephrine transporter
structure (smiles),measurement,setting,value
CN[C@H]1Cc2ccccc2[C@@H](c2ccc(Cl)c(Cl)c2)C1,IC50,[1],107 nM
same,IC50,[2],73 nM
